Consider twelve compounds from patent EP4825842A1, “DIVALENT BET DECOMPOSITION AGENT AND TARGETING MOLECULE-DRUG COMPLEX” (dated 2026).

The structures appear in SMILES notation.

For one assay, the system named is HIP-009 cells. Briefly: Test Example 2: in vitro cell survival inhibitory effect of compound using nerve cell (HIP-009 cell). The note with it: for Nerve selectivity: calculated from HIP-009 IC50 and SU-DHL-4 IC50; for Degree of improvement (vs. comparative compound): neural selectivity of each compound / neural selectivity of the comparative compound; for IC50: read-out: HIP-009 IC50, 50% rate of inhibition of cell survival, differentiated nerve cells, 7 days, total area occupied by the cells. On the procedure: HIP-009 cells (Code No. 23002-009, Hippocampal Neural Stem Cells, Cosmo Bio Co., Ltd.) were cultured in Neural Stem Cell Growth Media (Code No. 21001-250, Cosmo Bio Co., Ltd.) at 37°C for 2 to 4 weeks using a CO2 incubator (95% air, 5% CO2) until confluency with half-volume media exchanges once or twice per week, then allowed to differentiate in Neuro Transition Media (Code No. 21003-250, Cosmo Bio Co., Ltd.), and seeded at 5000 to 10000 cells/0.04 mL/well to a 384-well plate (Code No. 781091, Greiner bio-one) using Neural Differentiation media (Code No. 210040250, Cosmo Bio Co., Ltd.). Neurites were elongated with half-volume media exchanges once or twice per week. Each medium was supplemented with supplements as described in the instruction and used after being allowed to pass through a 0.22 µm filter. The cells were used in evaluation 3 weeks or later after seeding to the 384-well plate by confirming the elongated neurites.
In order to detach the cells, Trypsin (Code No. 41004-100, Cosmo Bio Co., Ltd.) was added thereto, and the mixture was incubated at 37°C for 3 to 10 minutes using a CO2 incubator (95% air, 5% CO2). Cell detachment reaction was stopped by the addition of Trypsin Inhibitor (Code No. 41005-100, Cosmo Bio Co., Ltd.) in an equal amount.
The 384-well plate was subjected to the following operation before cell seeding. A poly(ethylenimine) solution (Code No. 03880-100ML, Sigma-Aldrich Co., LLC) was diluted with 1 × Borate Buffer (dilution of Pierce 20 × Borate Buffer (Code No. 28341, Thermo Fisher Scientific Inc.)) to prepare a 0.07% poly(ethylenimine) solution, 0.02 mL of which was added to each well and incubated at 37°C for 1 hour. Then, the plate was washed twice with 0.1 mL of PBS and once with 0.1 mL of Otsuka distilled water and left standing overnight for drying. 0.02 mL of Laminin from Engelbreth-Holm-Swarm murine sarcoma basement membrane (Code No. L2020-1MG, Sigma-Aldrich Co., LLC) diluted into 0.0033 mg/mL with PBS was added to each well and incubated at 37°C for 1 hour. Laminin was sucked out, then 0.1 mL of Otsuka distilled water was added to the plate until just before seeding, and the plate was left standing.
The cells of day 0 were photographed using Cell3iMager duos (SCREEN Holdings Co., Ltd.) before addition of a test compound, and the total area occupied by the cells was calculated. Nine serial dilutions of the test compound (10000 mmol/L solution in DMSO) were prepared at a dilution factor of √10 so as to attain 5 times the final concentration using the Neural Differentiation Media, and added in a volume of 1/5 to each well. The final concentration of DMSO was set to 0.1 vol% for this preparation. The cells thus supplemented with the test compound were cultured at 37°C for 7 days in a CO2 incubator (95% air, 5% CO2). The cells of day 7 were photographed using Cell3iMager duos, and the total area occupied by the cells was calculated. […] Rate of inhibition of cell survival(%) = 100−A/B × 100 [formula] • A: Total area of the cells of day 7 • B: Total area of the cells of day 0
The results were as shown in the column "HIP-009 IC50 (nmol/L)" in Table 33 below. The selectivity of each compound for nerve cells was calculated according to the following formula using the results thus obtained and the results of Test Example 1. [formula]
Degree of improvement (vs. the comparative compound) = Neural selectivity of each compound / Neural selectivity of the comparative compound

Assay [1] has as its system SU-DHL-4 cells. Briefly: Test Example 1: in vitro cell survival inhibitory effect of compound using SU-DHL-4 cell line. The note with it: read-out: SU-DHL-4 IC50; 50% rate of inhibition of cell survival; 72 hours; Cell Counting Kit-8. As to the method: SU-DHL-4 cells (Code No. ACC 495, Deutsche Sammlung von Mikroorga nismen und Zellkulturen GmbH; DSMZ) were cultured in RPMI1640 medium (Code No. 11875-093, Thermo Fisher Scientific Inc.) supplemented with heat-inactivated fetal bovine serum (FBS: Code No. 10099-148, Thermo Fisher Scientific Inc.) in an amount that attained a final concentration of 10 vol% and a penicillin/streptomycin solution (PS: Code No. 15140-122, Thermo Fisher Scientific Inc.) in an amount that attained a final concentration of 1 vol% at 37°C using a CO2 incubator (95% air, 5% CO2). The cells were passaged at intervals of twice per week so as to maintain a cell density of 1 × 10 ^6 cells/mL or less in a volume of 20 to 40 mL.
The cultured SU-DHL-4 cells were seeded at 2000 cells/well to a transparent 384-well plate (Code No. 781182, Greiner bio-one). The cells thus seeded were precultured at 37°C for 18 to 25 hours in a CO2 incubator. Subsequently, a 1, 0.1, or 0.01 mmol/L solution of a test compound in DMSO was prepared, and nine serial dilutions were prepared at a dilution factor of √10 so as to attain 200 times the final concentration using the RPMI1640 medium containing FBS and PS, and added in a volume of 1/200 to each well. The final concentration of DMSO was set to 0.1 vol% for this preparation. The cells thus supplemented with the test compound were cultured at 37°C for 72 hours in a CO2 incubator. Subsequently, 0.020 mL of a solution of Cell Counting Kit-8 (Code No. CK04, Dojindo Laboratories) diluted 2-fold or 4-fold with phosphate-buffered saline (PBS) was added to each well. Color reaction was performed at 37°C for 2 to 3 hours in a CO2 incubator, followed by absorbance measurement at a wavelength of 450 nm using SpectraMax 340PC (Molecular Devices, LLC).

In assay [2] the test system is SU-DHL-4 cells. Briefly: Test Example 4: in vivo drug efficacy evaluation of compound and ADC (SU-DHL-4 subcutaneous transplant). Particulars: SCID mice with SU-DHL-4 tumor; 1 mg/kg body weight to the tail vein on day 1 and day 8; Figure 1. As to the method:
SU-DHL-4 cells suspended in phosphate-buffered saline (PBS) containing 50 vol% Matrigel (Corning Inc.) were ventrally subcutaneously transplanted at 1 × 10^7 cells/0.1 mL/head to 5-week-old male SCID mice. Individuals having a tumor volume of 140 mm^3 or more were selected and grouped on 15 days after transplantation.
The day of grouping was defined as day 0, and diluted compound 1 was administered at 1 mg/kg body weight to the tail vein on day 1 and day 8. Diluted ADC-1 was administered at 3 mg/kg body weight to the tail vein on day 1. PBS containing 0.05 mg/mL polysorbate 80 was administered to a control group. Compound 1 was diluted with 4.29% Tween 80 (final proportions of DMSO and Tween 80: 30% and 3%, respectively). ADC-1 was diluted with PBS containing 0.05 mg/mL polysorbate 80. The tumor volumes and body weights of the mice were measured twice a week.

With `CCC(=O)N1c2ccccc2[C@H](Nc2ccc(NC(=O)CNC(=O)Nc3ccc(OCCN4CCN(C)C(=O)[C@H]4C)cc3)cc2)C[C@@H]1C`, in the assay on HIP-009 cells, the Nerve selectivity was 2600, the “Degree of improvement (vs. comparative compound)” value came out at 20 and the IC50 was found to be 160 nM. For the same compound, in the assay with SU-DHL-4 cells [1], the concentration for half-maximal inhibition (IC50) worked out at 0.061 nM. Besides, the antitumor activity result in the assay with SU-DHL-4 cells [2] is reported as “strong antitumor activity”.

`CCC(=O)N1c2ccccc2[C@H](Nc2ccc(NC(=O)CNC(=O)Nc3ccc(/C=C/CN4CCN(C)C(=O)[C@H]4C)cc3)cc2)C[C@@H]1C`: in the assay on HIP-009 cells, the Nerve selectivity was 1000 and the IC50 came to 50 nM. In addition, the 50% inhibitory concentration (IC50) in the assay with SU-DHL-4 cells [1] worked out at 0.049 nM.

Regarding `CCC(=O)N1c2ccccc2[C@H](Nc2ccc(NC(=O)CNC(=O)Nc3ccc(OCCN4CCC(=O)N(C)CC4)cc3F)cc2)C[C@@H]1C`, in the assay with HIP-009 cells, the Nerve selectivity was 1500 and the 50% inhibitory concentration (IC50) was determined as 47 nM. Moreover, the IC50 with SU-DHL-4 cells [1] came out at 0.031 nM.

For `CCC(=O)N1c2cc(F)ccc2[C@H](Nc2ccc(NC(=O)CNC(=O)Nc3ccc(OCCN4CCN(C)C(=O)[C@H]4C)cc3)cc2)C[C@@H]1C` (relative stereo), in the assay with HIP-009 cells, the Nerve selectivity was 6000 and the IC50 was determined as 140 nM. Moreover, the IC50 with SU-DHL-4 cells [1] was 0.023 nM.

As for `CCC(=O)N1c2ccccc2[C@H](Nc2ccc(NC(=O)CNC(=O)Nc3ccc(OCCN4CCN(C(C)=O)CC4)c(F)c3)cc2)C[C@@H]1C`, the Nerve selectivity with HIP-009 cells is 2800. The IC50 in the assay on HIP-009 cells was 80 nM; in the assay with SU-DHL-4 cells [1], 0.028 nM.

`CCC(=O)N1c2ccc(Cl)cc2[C@H](Nc2ccc(NC(=O)CNC(=O)Nc3ccc(OCCN4CCN(C)C(=O)[C@H]4C)cc3)cc2)C[C@@H]1C` (relative stereo): the Nerve selectivity in the assay on HIP-009 cells is 710. Moreover, the IC50 with HIP-009 cells was found to be 46 nM; in the assay with SU-DHL-4 cells [1], 0.065 nM.

For the compound `CCC(=O)N1c2ccccc2[C@H](Nc2ccc(NC(=O)CNC(=O)Nc3ccc(OCCN4CC(=O)N(C)[C@@H](C)C4)cc3)cc2)C[C@@H]1C`, in the assay with HIP-009 cells, the Nerve selectivity is 660, the “Degree of improvement (vs. comparative compound)” value was found to be 5.1 and the IC50 was 2300 nM. The IC50 in the assay on SU-DHL-4 cells [1] came out at 3.4 nM.

With `CCC(=O)N1c2ccccc2[C@H](Nc2ccc(NC(=O)CNC(=O)Nc3ccc(OCCN4CCN(C(C)=O)C[C@@H]4C)cc3F)cc2)C[C@@H]1C`, the Nerve selectivity in the assay with HIP-009 cells is 1700. Further, the results for the IC50 in the assay on HIP-009 cells and in the assay on SU-DHL-4 cells [1] were 120 nM and 0.068 nM, respectively.

`CCC(=O)N1c2ccccc2[C@H](Nc2ccc(NC(=O)CNC(=O)Nc3ccc(OCCN4C[C@@H]5C[C@H]4CN5C(C)=O)cc3)cc2)C[C@@H]1C`: in the assay with HIP-009 cells, the Nerve selectivity was 930, the “Degree of improvement (vs. comparative compound)” value is 7.2 and the IC50 turned out to be 1400 nM. Besides, the IC50 in the assay on SU-DHL-4 cells [1] came to 1.5 nM.

On to `CCC(=O)N1c2ccc(F)cc2[C@H](Nc2ccc(NC(=O)CNC(=O)Nc3ccc(OCCN4CCN(C)C(=O)[C@H]4C)cc3)cc2)C[C@@H]1C` (relative stereo), for which, in the assay with HIP-009 cells, the Nerve selectivity was 5800 and the IC50 worked out at 190 nM. The IC50 in the assay with SU-DHL-4 cells [1] was found to be 0.032 nM.

Take `CCC(=O)N1c2ccccc2[C@H](Nc2ccc(NC(=O)CNC(=O)Nc3ccc(OCCN4CCN(CC)C(=O)C4)cc3)cc2)C[C@@H]1C`: in the assay on HIP-009 cells, the Nerve selectivity was 1600, the “Degree of improvement (vs. comparative compound)” value is on record as 12 and the IC50 came to 1600 nM. In the assay with SU-DHL-4 cells [1], the IC50 turned out to be 0.99 nM.

For `CCC(=O)N1c2ccccc2[C@H](Nc2ccc(NC(=O)CNC(=O)Nc3ccc(OCCN4CCCN(C)C(=O)C4)cc3)cc2)C[C@@H]1C`, in the assay with HIP-009 cells, the Nerve selectivity is 8700, the “Degree of improvement (vs. comparative compound)” value is reported as 67 and the IC50 came to 2500 nM. The IC50 with SU-DHL-4 cells [1] was 0.29 nM.
